# Apparent affinities of Ab-14 variants for a coronavirus HR2 peptide

The target is the same throughout: PDVDLGDISGINAS, from the HR2 region of SARS-CoV-2 spike.

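The starting antibody came from a phage panning campaign against this peptide. Library AAYL49 holds single substitutions and randomly drawn double and triple substitutions in the CDRs. AlphaSeq pools MATa yeast showing the antibodies with MATalpha yeast showing the peptide. The frequency of each diploid, read from paired DNA barcodes, reflects how well the two displayed proteins bind. The ratio of observed to expected reads was calibrated, replicate by replicate, on BCL2-family standards whose Kd was known from biolayer interferometry. The assay was run in three technical replicates.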

Parent: Ab-14, a human scFv built as VH, a (GGGGS)3 linker, VL. Only the CDRs of the heavy chain vary.
VH: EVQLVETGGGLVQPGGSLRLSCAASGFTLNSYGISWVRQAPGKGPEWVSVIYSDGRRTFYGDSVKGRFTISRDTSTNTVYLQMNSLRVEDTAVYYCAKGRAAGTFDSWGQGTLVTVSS
VL: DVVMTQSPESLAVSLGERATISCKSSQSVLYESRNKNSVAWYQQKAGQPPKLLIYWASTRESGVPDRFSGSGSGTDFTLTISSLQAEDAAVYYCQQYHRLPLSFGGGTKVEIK

Each variant is given by its three heavy chain CDRs, as the data file delimits them; those of the parent are GFTLNSYGIS, VIYSDGRRTFYGDSVK, GRAAGTFDS. Numbers give log10(Kd / nM), so 0 is 1 nM and 3 is 1 µM. Smaller is tighter. Where no diploid with the target was found in that replicate, the entry reads "ND": below detection, most likely a poor binder, though not proof of it. Background: pairings of library AAYL49 with three empty control strains gave a value in 15% of cases (median 4.06, 5th percentile 2.83). Values in that range, when seen in few replicates, are hard to tell from nonspecific mating. The control count says in how many pairings with the empty strains this scFv gave a signal, with their mean in brackets.

CDR-H1,CDR-H2,CDR-H3,"replicates, log10 nM",control signals
GFTLNSYGIS,VPYSDGRRTFYGDSEK,GQAAGTFDS,ND ND ND,1/9 (4.68)
GFTLNSYGIS,VIYSDGRRTFYGDSGK,GRHAITFDS,ND ND ND,0/9
GNTLNSYGIS,VIYSDGRRTCYGDSVK,GRAAGTFDS,ND ND ND,2/9 (3.77)
GFTLNSYGIS,VPYSDMRRTFYGDSVK,GRAAGIFDS,ND 5.17 4.19,4/9 (4.77)
GFTLNSYGIS,VIYSDGRRTFYIDSFK,GRATGTFDS,ND ND ND,3/9 (5.51)
GFTLNSYGIS,VIYSDGRRTFYGDSHK,GRPAGYFDS,ND ND ND,0/9
MFTLNSYGNS,VIYSDGRRTFGGDSVK,GRAAGTFDS,ND 4.21 ND,3/9 (3.84)
GFTLNSMEIS,DIYSDGRRTFYGDSVK,GRAAGTFDS,ND ND ND,3/9 (3.79)
GFTLNSYGIS,VIYSDGRRTPYGDSIK,GRAAGTDDS,ND ND ND,2/9 (3.94)
GFYLNSYGIS,VIYSDPRRTFYGDSVK,GRAAGTFDS,ND 2.59 ND,0/9
GFTLNSYGIV,VIYSDGRRTFMGDSVK,GRAFGTFDS,ND ND 4.93,1/9 (2.67)
GFTLNSYGSS,VIYSDGRRTFYGDSVK,VRAAGTFDS,ND ND ND,1/9 (3.61)
GFTLNSYGIS,VIYSDGRRTFYGDSVK,GRFSGTIDS,0.56 0.77 0.63,1/9 (5.89)
GFTLNSYGIS,VIYSDGRRTFYRDSVK,GRKAGTFDP,ND ND ND,5/9 (4.31)
GFTLNSYGIS,VIYSDGRRTFYNDCVK,NRAAGTFDS,ND 3.59 ND,0/9
GFTLNSYGGS,LIYSDGRRTFYGDSVK,GRAAGTFDS,ND ND ND,0/9
GFTLNSYIIS,VIYWDGRRTFYGDSVK,QRAAGTFDS,ND ND ND,0/9
GFTLNSYGIS,VIYSSGRRRFYGDSVK,GREAGTFDS,ND ND ND,0/9
KFTLNWYGIS,VIYSDGRRTFYGDAVK,GRAAGTFDS,ND ND ND,4/9 (4.10)
GFTLNSYGMS,IIGSDGRRTFYGDSVK,GRAAGTFDS,ND ND ND,1/9 (3.35)
GPTLNSYGIS,VIYSDGRRTFYGDSVK,GNAAGTYDS,4.72 ND ND,1/9 (3.73)
GFTLNSYGIS,VIYEDGRETFYGDSVK,GRAAGTFVS,ND ND ND,0/9
GFTLNSYGIS,VIYSDGVRTFYGDSVK,GRAAGTFDS,0.98 1.43 1.16,5/9 (3.99)
GFTLFSVGIS,VIYRDGRRTFYGDSVK,GRAAGTFDS,4.26 ND ND,0/9
GFTLNSYGIS,VVQSDGRSTFYGDSVK,GRAAGTFDS,ND 3.55 ND,2/9 (3.68)
GRTLNSAGIS,VIYSDGRRTFYGDSVQ,GRAAGTFDS,6.50 ND ND,4/9 (5.04)
GFTLNSYGIS,EIYSYGRRTFYGDSVK,GRAVGTFDS,ND ND ND,0/9
GNTLNSYGFS,VIYSDGRDTFYGDSVK,GRAAGTFDS,ND ND ND,0/9
GFTLNSYQIS,VIYSDGFRTFYGDSVK,GSAAGTFDS,ND 3.52 3.82,2/9 (4.34)
GFTLNSYGIS,LIYSDGRRTFYGCSDK,GRAAGTFDS,ND 4.16 3.67,0/9
GFTLKSRGIS,TIYSDGRRTFYGDSVK,GRAAGTFDS,ND 4.20 ND,1/9 (3.51)
GFTLNSEGIS,VIYDDGRRTFHGDSVK,GRAAGTFDS,5.58 4.41 ND,7/9 (4.33)
GFTLNSYGIS,VIYSDGRRTFYGDSVK,PRAAGTFDS,5.13 3.31 ND,1/9 (3.45)
GFTLNSYGIM,VICSDGRRTFYYDSVK,GRAAGTFDS,4.88 ND ND,1/9 (4.90)
GCTLNSYGGS,VIYSDGRRTFYGDSVK,GRAAGTFAS,ND ND ND,1/9 (2.95)
GFILNSYGIS,VIYSDGRRTFYGDSVK,NRAEGTFDS,4.20 4.90 ND,3/9 (4.83)
GFTLNSYGIS,VIYHDGRRSFYGDSVK,GRAAGTLDS,ND ND ND,0/9
GFTLNNYGIS,VIFSDLRRTFYGDSVK,GRAAGTFDS,ND 2.96 ND,0/9
CFTLNSYGNS,VIYSDGRRTFYGDSVK,GRAKGTFDS,ND 2.99 4.59,5/9 (4.13)
GFTLNSYGIS,VIYSDGRRTFYGDDVK,DRAAGTFDS,1.31 1.10 1.84,0/9
GFTLNSYGIS,VIYSDGRRTAPYDSVK,GRAAGTFDS,4.10 ND ND,3/9 (4.37)
GFTLNSYGGS,VIYHDGRRYFYGDSVK,GRAAGTFDS,ND ND ND,0/9
GFTLNSYGIS,VIYSDSRRNFYGDSVK,GRAAGIFDS,5.49 4.44 5.12,6/9 (4.50)
VFTLNQYGIS,VIYSDGRRTFYGDSVK,GRAAGTFDS,1.60 1.57 2.48,0/9
GETLNSYGIS,VIYSDGRRTPYGDSVK,GNAAGTFDS,ND ND ND,1/9 (2.75)

Excerpt, the first 7 entries:

CDR-H1,CDR-H2,CDR-H3,"replicates, log10 nM",control signals
GFTLNSYGIS,VPYSDGRRTFYGDSEK,GQAAGTFDS,ND ND ND,1/9 (4.68)
GFTLNSYGIS,VIYSDGRRTFYGDSGK,GRHAITFDS,ND ND ND,0/9
GNTLNSYGIS,VIYSDGRRTCYGDSVK,GRAAGTFDS,ND ND ND,2/9 (3.77)
GFTLNSYGIS,VPYSDMRRTFYGDSVK,GRAAGIFDS,ND 5.17 4.19,4/9 (4.77)
GFTLNSYGIS,VIYSDGRRTFYIDSFK,GRATGTFDS,ND ND ND,3/9 (5.51)
GFTLNSYGIS,VIYSDGRRTFYGDSHK,GRPAGYFDS,ND ND ND,0/9
MFTLNSYGNS,VIYSDGRRTFGGDSVK,GRAAGTFDS,ND 4.21 ND,3/9 (3.84)

Data: MIT Lincoln Laboratory AlphaSeq set, Engelhart et al. 2022, doi:10.1038/s41597-022-01779-4, as distributed in FLAb.